Reference: PMC11352099 (RSC Medicinal Chemistry, 2024)

Columns and labels:
[1] = in vitro; conditions: human
[2] = test system: Caco-2 monolayers
[3] = target: SARS-CoV-2 nsp14 MTase (Severe acute respiratory syndrome coronavirus 2, UniProt P0DTD1); assay type: biochemical; conditions: methyl group on the amidic nitrogen

SMILES: Cc1cc(=O)oc2cc(NC(=O)[C@H]3O[C@@H](n4cc(C#Cc5cncnc5)c5c(N)ncnc54)[C@H](O)[C@@H]3O)ccc12 [18l]
- efflux ratio at 2 h, 10 µM ([1]; Caco-2): 0.8
- recovery at 2 h, 10 µM ([1]; Caco-2, Recovery (%) B-A): 101%
- Papp A→B at 2 h, 10 µM ([1]; Caco-2, pH 7.4): 10.1 ± 4 ×10⁻⁶ cm/s
- Papp A-B [2]: 10.1 ± 4.0 cm/s x 10-6

SMILES: Cc1cc(=O)[nH]c2cc(N(C)C(=O)[C@H]3O[C@@H](n4cc(C#Cc5cncnc5)c5c(N)ncnc54)[C@H](O)[C@@H]3O)ccc12 [18q]
- fold decrease in inhibitory activity [3]: 20 fold

SMILES: C[C@H]1O[C@@H](O[C@H]2[C@@H](O)C[C@H](O[C@H]3[C@@H](O)C[C@H](O[C@H]4CC[C@@]5(C)[C@H](CC[C@@H]6[C@@H]5C[C@@H](O)[C@]5(C)[C@@H](C7=CC(=O)OC7)CC[C@]65O)C4)O[C@@H]3C)O[C@@H]2C)C[C@H](O)[C@@H]1O [Digoxin, reference compound]
- Papp B→A at 2 h, 10 µM ([1]; Caco-2, pH 7.4): 13.8 ± 0.9 ×10⁻⁶ cm/s
